The assay addresses Streptavidin (UniProt P22629). Description: diffraction-based leaky waveguide (label-free optical biosensor); streptavidin held in a photopatterned chitosan film via PC-biotin (unexposed strips high loading, exposed strips low loading); PAB 0.07 mg/mL in 100 mM HEPES pH 7.4 pumped at 200 µL/min, 20 °C; shift in resonance angle fitted to an exponential rise.

Chains of the proteins cited; added tags and fusions are not shown. Lines headed by an entry give the natural chain unless they say otherwise; changes in a name come on top.
UniProt P22629: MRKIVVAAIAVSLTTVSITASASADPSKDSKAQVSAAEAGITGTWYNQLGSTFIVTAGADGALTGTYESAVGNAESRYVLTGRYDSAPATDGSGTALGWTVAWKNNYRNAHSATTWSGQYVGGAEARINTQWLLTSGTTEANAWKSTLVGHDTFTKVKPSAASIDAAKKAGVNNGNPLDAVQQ

As to “protein A–biotin (PAB) from Staphylococcus aureus (from UniProt P38507 37-477) (natural protein)”, the exponent of the exponential rise of the angle shift (exposed regions) was 0.00174 s⁻¹ and the exponent of the exponential rise of the angle shift (unexposed regions) stood at 0.00486 s⁻¹.

The values above are taken from paper PMC7601400.
